In patent US7902327B2, “Dendrimeric peptides, pharmaceutical compositions and methods of using the same” (New York University School of Medicine, priority 2007, dated 2011):

System: trypsin

CC[C@H](C)[C@H](N)C(=O)N[C@@H](CC(C)C)C(=O)N1CCC[C@H]1C(=O)N[C@@H](Cc1c[nH]c2ccccc12)C(=O)N[C@@H](CCCCN)C(=O)N[C@@H](Cc1c[nH]c2ccccc12)C(=O)N1CCC[C@H]1C(=O)N[C@@H](Cc1c[nH]c2ccccc12)C(=O)N[C@@H](Cc1c[nH]c2ccccc12)C(=O)N1CCC[C@H]1C(=O)N[C@@H](Cc1c[nH]c2ccccc12)C(=O)N[C@@H](CCCN=C(N)N)C(=O)N[C@@H](CCCN=C(N)N)C(N)=O [Indolicidin, reference compound]
antibacterial activity after trypsin treatment, of the untreated control: 25-30%
